Measured values as given in PubChem BioAssay AID624156 (Broad Institute, 2012).
The list shows a part of the results, in another mix than the full data. Some salts or complexes appear as unconnected parts, following the source record. Calls of active or inactive are those of the source. No stated cut-off is given here; in the data, active means ROS induction above about 79% (passing the limit was not always enough); inconclusive means no clear call, values can overlap the other calls.

Experiment: ROS inducers in U2OS cancer cells, primary screen, cell-based, H2DCF-DA fluorescence (AID 624156);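 further: 0% = DMSO vehicle median and 100% = reference compound median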
Settings: at 10 µM, active compounds read high

With Cc1cc(C)cc(OP(C)(=O)Nc2ccc(OC(C)C)cc2)c1 (centres undefined) as the molecule, how does the ROS induction (% of piperlongumine) read?
Its ROS induction (% of piperlongumine) is inactive: -2.02%.

For C/C1=C2N=C(/C=C3N=C(/C(C)=C4\[N-][C@@](C)([C@@H]5N=C1[C@](C)(CCC(=O)NCC(C)OP(=O)(O)O[C@@H]1[C@H](O)[C@H](n6cnc7cc(C)c(C)cc76)O[C@H]1CO)[C@H]5CC(N)=O)[C@@](C)(CC(N)=O)[C@@H]4CCC(N)=O)[C@@](C)(CC(N)=O)[C@@H]\3CCC(N)=O)C(C)(C)[C@@H]/2CCC(N)=O.[C-]#N.[Co+3] (some centres undefined), which ROS induction (% of piperlongumine) is on record?
Its ROS induction (% of piperlongumine) is inactive: -5.85%.

For CP(=O)(Nc1ccc(Cl)cc1)Oc1ccc(F)cc1 (centres undefined), which ROS induction (% of piperlongumine) is on record?
The ROS induction (% of piperlongumine) was inactive: -2.39%.

Which ROS induction (% of piperlongumine) does the source give for COc1cc2c(cc1NP(C)(=O)Oc1ccccc1)oc1ccccc12 (centres undefined) here?
The ROS induction (% of piperlongumine) was inactive: 28.4%.
